In patent publication US20220185822A1, “SELECTIVE LIGANDS OF HUMAN CONSTITUTIVE ANDROSTANE RECEPTOR” (USTAV ORGANICKE CHEMIE A BIOCHEMIE AV CR, V.V.I., priority 2019, published 2022):

Assay: Metabolic stability in human liver S9 fraction

half-life at 2 μM: 42 min
Structure (SMILES): NC(=O)c1cc(Cn2cc(-c3c(-c4ccc(Cl)cc4)nc4ccccn34)nn2)ccc1Cl [Example 110, 2-Chloro-5-((4-(2-(4-chlorophenyl)imidazo[1,2-a]pyridin-3-yl)-1H-1,2,3-triazol-1-yl)methyl)benzamide]
